The entries are a selection whose mix differs from that of the whole data set. The source made the active and inactive calls.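 How the source made its calls: active means at 10 µM, mean starting fluorescence two-fold or more over control wells; inactive means the rest.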
Assay: intrinsic fluorescence of library compounds, ex339/em460 – biochemical, MLSMR library, data from DPM-DC assay, artefact control, profiling panel (AID 709);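 further: signal is the first read of a kinetic run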
Conditions: compound autofluorescence, ex339/em460 nm, NADH buffer; at 10 µM; stronger effect = higher value; 1 = no-compound wells, NADH background

SMILES | fluorescence fold increase
COc1ccccc1OP(C)(=O)Nc1ccc(C)c(C)c1 (stereo not drawn) | inactive: 1.06
Cc1nc2ccc3ccccc3c2o1.O=[N+]([O-])c1cc([N+](=O)[O-])c(O)c([N+](=O)[O-])c1 | inactive: 1.14
CP(=O)(Nc1ccccn1)Oc1ccccc1 (stereo not drawn) | inactive: 1.06
CCN(CC)CC(O)COC(=O)C(O)(c1ccccc1)C1CCCCC1 (stereo not drawn) | inactive: 1.04
CP(=O)(Oc1ccccc1)N1CCOC1=O (stereo not drawn) | inactive: 1.08
COc1ccccc1OP(C)(=O)Nc1c(C)n(C)n(-c2ccccc2)c1=O (stereo not drawn) | inactive: 1.09
CN(C)CCOC(=O)C(O)(c1ccccc1)C1CCCCC1 (stereo not drawn) | inactive: 1.03
CCOP(C)(=S)SCC(=O)NC(C)(CC)C(=O)O (stereo not drawn) | inactive: 1.04
CP(=O)(Nc1ccc2c(c1)OCCO2)Oc1ccccc1 (stereo not drawn) | inactive: 1.01
Cc1ccccc1NP(C)(=O)Nc1ccccc1C | inactive: 1.12
CP(=O)(Nc1ccccc1F)Oc1ccccc1 (stereo not drawn) | inactive: 1.11
Cc1ccc(C)c(NP(C)(=O)Oc2ccccc2)c1 (stereo not drawn) | inactive: 0.97
Cc1nc2ccc3ccccc3c2s1.O=[N+]([O-])c1cc([N+](=O)[O-])c(O)c([N+](=O)[O-])c1 | inactive: 0.99
CP(=S)(Nn1cnnc1)Oc1ccccc1 (stereo not drawn) | inactive: 1.07
CP(=O)(NC(=O)Nc1ccccc1)Oc1ccccc1 (stereo not drawn) | inactive: 1.1
CCOP(C)(=S)SCC(=O)NC(C)C(=O)O (stereo not drawn) | inactive: 1.06
COc1ccccc1OP(C)(=O)Nc1ccc(C)cc1 (stereo not drawn) | inactive: 1.08
Cc1ccc(NP(C)(=O)Oc2ccccc2)c(C)c1 (stereo not drawn) | inactive: 1.11

— PubChem BioAssay AID709 (SRMLSC, 2007)
